# The list shows a part of the results, in another mix than the full data. The source made the active and inactive calls.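 How the source made its calls: active means activation factor of 2 or more at 20 µM; inactive means the rest.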
# The chains behind the UniProt entries cited, without tags or fusion partners. Where a name states a change or a piece, a line headed by the entry shows the natural chain unless it says otherwise.
# UniProt P34949: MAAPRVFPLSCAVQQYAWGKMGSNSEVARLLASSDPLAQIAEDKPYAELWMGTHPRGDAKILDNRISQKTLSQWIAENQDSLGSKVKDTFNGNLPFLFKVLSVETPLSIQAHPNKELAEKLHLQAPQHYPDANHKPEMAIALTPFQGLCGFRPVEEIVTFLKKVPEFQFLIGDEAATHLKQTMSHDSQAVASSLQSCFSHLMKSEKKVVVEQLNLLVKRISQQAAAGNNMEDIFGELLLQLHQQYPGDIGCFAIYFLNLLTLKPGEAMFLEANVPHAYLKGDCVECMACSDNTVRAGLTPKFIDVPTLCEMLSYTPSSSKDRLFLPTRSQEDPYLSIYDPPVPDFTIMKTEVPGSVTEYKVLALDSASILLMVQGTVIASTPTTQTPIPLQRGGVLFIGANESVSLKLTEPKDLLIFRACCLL
# Target: Mannose-6-phosphate isomerase (Homo sapiens) (UniProt P34949)
# Assay: human PMI activators, high substrate, primary screen, biochemical, fluorescence intensity, near-saturating mannose 6-phosphate (AID 1216)
# Details: coupled PMI enzyme assay, resazurin fluorescence, 20 min; at 20 µM; active compounds read high; 1 = untreated enzyme, 0 = substrate-free blank
# Outline: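 test system = human PMI in coupled enzyme assay | medium = HEPES-buffered pH 7.4 with magnesium and detergent | also added = 1.0 mM mannose-6-phosphate substrate with 0.22 mM NADP+ | compound = 20 µM single dose | times = 20 min incubation at room temperature | measured by = resorufin fluorescence (Ex 544/Em 590 nm) from resazurin via diaphorase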
row,SMILES,activation factor
1,COc1ccc(C2=NCC(CBr)S2)cc1 (stereo not drawn),inactive: 1.1
2,O=[N+]([O-])c1cccc2n[nH]nc12,inactive: 1.1
3,Cc1ccc(NP(=O)(Oc2ccccc2)Oc2ccccc2)nc1,inactive: 0.9
4,O=[N+]([O-])c1cc([N+](=O)[O-])c(CCNc2ccccc2)c([N+](=O)[O-])c1,inactive: 0.9
5,CCc1nc2c(n1)c1c(non1O)c1c2no[n+]1[O-],inactive: 0.4
6,CC(C)=N/N=C(\N)N[N+](=O)[O-],inactive: 1.1
7,CN(C)C(=O)OCCc1n(C)cc[n+]1C,inactive: 1.1
8,O=[N+]([O-])c1ncn(CCn2ncnc2[N+](=O)[O-])n1,inactive: 0.8
9,Cc1cc(SC(NC(=O)c2ccc(F)cc2)C(Cl)(Cl)Cl)ncn1 (stereo not drawn),inactive: 1.4
10,CCN(N=Nc1nonc1N)c1nonc1N,inactive: 0.9
11,Clc1ccc(Cl)c(NC2=NCC(CBr)S2)c1 (stereo not drawn),inactive: 1.1
12,CN1CCCC(OC(=O)C(c2ccccc2)c2ccccc2)C1 (stereo not drawn),inactive: 1.1
13,Cc1c2non([O-])c-2c(C)[n+](=O)[n+]1[O-],inactive: 0.6
14,O=C(NC(Sc1ccncn1)C(Cl)(Cl)Cl)c1ccccc1 (stereo not drawn),inactive: 1.7
15,O=P1(Nc2nc3ccc(Cl)cc3s2)COc2ccccc2O1 (stereo not drawn),inactive: 0.9
16,O=C(NC1CCS(=O)(=O)C1)NP(=S)(Oc1ccccc1)Oc1ccccc1 (stereo not drawn),inactive: 0.8
17,CCNC(=S)/N=C(\N)N[N+](=O)[O-],inactive: 1.1
18,c1ccc(-c2nn[nH]n2)c(-c2nn[nH]n2)c1,inactive: 1.2
19,CC(=O)NC(SC(=S)N(CC(C)C)CC(C)C)C(Cl)(Cl)Cl (stereo not drawn),inactive: 1.1
20,Cc1ccc(OP(=O)(Nc2ccccn2)Oc2ccc(C)cc2)cc1,inactive: 0.9
21,O=c1c2cc([N+](=O)[O-])ccc2[nH]c2c([N+](=O)[O-])cc([N+](=O)[O-])cc12,inactive: 0.7
22,C(Cc1nn[nH]n1)Cc1nn[nH]n1,inactive: 1.2

row,SMILES,activation factor
1,O=C(OC1CN2CCC1CC2)c1cccc(Cl)c1 (stereo not drawn),inactive: 0.9
2,O=P(Nc1nccs1)(c1ccccc1)c1ccccc1,inactive: 1.1
3,CC(C)/C=N\N=C(\N)N[N+](=O)[O-],inactive: 1.1
4,Cc1nn(-c2ccccc2)c2c1P(=O)(N1CCOCC1)N(C)C(c1ccccc1)=N2 (stereo not drawn),inactive: 0.9
5,CN(C)C1(CNC(=O)c2ccc(S(C)(=O)=O)cc2)CCCCC1,inactive: 0.9
6,O=P1(Nc2ncccn2)COc2ccccc2OC1,inactive: 1.2
7,O=P1(Nc2ccc(Br)cn2)COc2ccccc2OC1,inactive: 1.1
8,Cc1ccc(OCC(=O)OC2CN3CCC2CC3)cc1 (stereo not drawn),inactive: 0.9
9,O=P(Nc1nccs1)(c1ccccc1)c1nc2ccccc2s1 (stereo not drawn),inactive: 0
10,O=[N+]([O-])c1ccc2c(c1)nnn2O,inactive: 1.1
11,COc1cc(C(=O)NCC2(N3CCOCC3)CCCCC2)cc(Cl)c1OC(C)C,inactive: 1.1
12,Cc1ccc(NCCc2c([N+](=O)[O-])cc([N+](=O)[O-])cc2[N+](=O)[O-])cc1,inactive: 0.7
13,O=C(OC1CN2CCC1CC2)C12CC3CC(CC(C3)C1)C2 (stereo not drawn),inactive: 1.1
14,ClCCSc1nnc(-c2cccnc2)o1,inactive: 0.9
15,CC(C)NC(=O)NP(=O)(Oc1ccccc1)Oc1ccccc1,inactive: 0.9
16,O=[N+]([O-])c1cc([N+](=O)[O-])c(-c2ccn[nH]2)s1,inactive: 0.8
17,Cc1cc(SC(NC(=O)c2ccccc2)C(Cl)(Cl)Cl)nc(C(C)C)n1 (stereo not drawn),inactive: 1.2
18,Cc1cc(SC(NC=O)C(Cl)(Cl)Cl)ncn1 (stereo not drawn),inactive: 1.8
19,O=P(Nc1ccccn1)(c1cccc2ccccc12)c1cccc2ccccc12,inactive: 0.9
20,COP1(=S)c2c(C)nn(CCC#N)c2N=C(c2ccc(F)cc2)N1C (stereo not drawn),inactive: 1.1
21,CCC(C)N(CC(C)C)C(=S)SC(NC(C)=O)C(Cl)(Cl)Cl (stereo not drawn),inactive: 1.1

# From PubChem BioAssay AID1216 (Sanford-Burnham Center for Chemical Genomics, 2008)
